{
  "sequences": {"note": "The chains behind the UniProt entries cited, without tags or fusion partners. Where a name states a change or a piece, a line headed by the entry shows the natural chain unless it says otherwise.", "UniProt Q08345": "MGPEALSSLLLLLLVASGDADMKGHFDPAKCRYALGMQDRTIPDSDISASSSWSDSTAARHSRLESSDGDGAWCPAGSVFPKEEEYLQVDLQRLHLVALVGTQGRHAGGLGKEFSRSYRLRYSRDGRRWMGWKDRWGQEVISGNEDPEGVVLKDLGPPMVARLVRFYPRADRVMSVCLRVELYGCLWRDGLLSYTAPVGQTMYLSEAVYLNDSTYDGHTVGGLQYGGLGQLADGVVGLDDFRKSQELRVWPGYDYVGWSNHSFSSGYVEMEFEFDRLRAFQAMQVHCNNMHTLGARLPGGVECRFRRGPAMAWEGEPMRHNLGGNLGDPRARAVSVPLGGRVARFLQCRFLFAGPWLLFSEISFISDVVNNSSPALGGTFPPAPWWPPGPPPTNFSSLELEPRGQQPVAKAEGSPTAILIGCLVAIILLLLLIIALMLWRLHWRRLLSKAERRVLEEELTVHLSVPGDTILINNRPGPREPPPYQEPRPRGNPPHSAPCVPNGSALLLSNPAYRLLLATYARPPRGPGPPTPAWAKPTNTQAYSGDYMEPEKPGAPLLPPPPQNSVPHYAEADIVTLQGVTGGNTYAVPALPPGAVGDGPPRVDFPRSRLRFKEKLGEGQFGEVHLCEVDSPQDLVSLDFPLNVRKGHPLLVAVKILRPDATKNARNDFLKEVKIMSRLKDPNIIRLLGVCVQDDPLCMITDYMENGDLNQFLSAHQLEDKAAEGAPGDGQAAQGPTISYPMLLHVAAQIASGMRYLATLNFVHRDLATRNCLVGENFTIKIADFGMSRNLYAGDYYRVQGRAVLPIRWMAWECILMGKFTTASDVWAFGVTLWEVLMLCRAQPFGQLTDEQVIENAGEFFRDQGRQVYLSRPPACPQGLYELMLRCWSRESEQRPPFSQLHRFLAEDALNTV"},
  "source": "paper PMC5053573",
  "about": "“Structure-Based Design of Tetrahydroisoquinoline-7-carboxamides as Selective Discoidin Domain Receptor 1 (DDR1) Inhibitors” (Journal of Medicinal Chemistry, 2016)",
  "key": {"DDR1": {"target": "DDR1 (Homo sapiens, UniProt Q08345)", "details": "binder"}, "[1]": {"assay": "Pharmacokinetics study in ICR mice", "type": "in vivo", "details": "male, mouse, whole blood, iv, 1 mg/kg, read-out: CL (L/hr/kg) in mice (converted)"}, "[2]": {"test_system": "Panc-1 pancreatic cancer cells", "assay": "Liquid colony forming assay", "details": "Panc-1 cells, 1.5-2 weeks"}, "[3]": {"test_system": "BLM-induced pulmonary fibrosis", "assay": "BLM-induced pulmonary fibrosis mouse model", "type": "in vivo, C57BL/6 mice", "details": "oral 10 and 50 mg/kg BID for 2 weeks"}, "[4]": {"test_system": "DDR1 activation in lung cancer cell line H1299", "assay": "Western blot of DDR1 activation in H1299 cells", "type": "cell-based", "details": "designated concentrations for 6 hours, 1.0 µM for indicated time"}, "[5]": {"test_system": "panel of 468 kinases (including 403 nonmutated kinases)", "details": "1000 nM, 403 non-mutant kinases"}, "[6]": {"test_system": "Panc-1 pancreatic cancer cells", "assay": "Wound healing (scratch) assay", "details": "Panc-1 cells"}, "[7]": {"test_system": "DDR1-mediated signaling in primary human lung fibroblasts", "assay": "Western blot analysis of DDR1 signaling in primary human lung fibroblasts", "type": "cell-based", "details": "24 h treatment"}},
  "note": "Entries after “also recorded” stand apart in the source; their conditions may differ.",
  "data": [
    {"smiles": "Cc1cn(-c2cc(NC(=O)c3ccc4c(c3)CN(c3cncnc3)C[C@@H]4C)cc(C(F)(F)F)c2)cn1", "note": "[Compound 6j]", "values": [
      {"measurement": "%Ctrl @ 1000nM", "setting": "DDR1", "result": 0.25, "unit": "%"},
      {"measurement": "clearance", "setting": "[1]", "result": 0.8, "unit": "L/h/kg"},
      {"measurement": "colony formation", "setting": "[2]", "result": "reduces colony formation"},
      {"measurement": "BLM-induced pathological changes of lung (H&E, Masson's trichrome)", "setting": "[3]", "result": "prevented these BLM-induced pathological changes in a dose-dependent manner; also recorded: prevents BLM-induced lung fibrosis"},
      {"measurement": "hydroxyproline content of lung", "setting": "[3]", "result": "dose-dependent suppression"},
      {"measurement": "activation of DDR1, Western blot", "setting": "[4]", "result": "inhibits activation of DDR1 in the dose.dependent and the time –dependent manner"},
      {"measurement": "Number of Hits S(1)", "setting": "[5]", "result": 4},
      {"measurement": "Number of Hits S(10)", "setting": "[5]", "result": 5},
      {"measurement": "Number of Hits S(35)", "setting": "[5]", "result": 9},
      {"measurement": "migration of cancer cells (scratch assay)", "setting": "[6]", "result": "migration of cancer cells"},
      {"measurement": "activation of DDR1 (phospho-DDR1), Western blot", "setting": "[7]", "result": "dose-dependently suppressed; also recorded: inhibited DDR1-mediated signaling in a concentration-dependent manner"},
      {"measurement": "downstream signaling intermediate p38 (phospho-p38), Western blot", "setting": "[7]", "result": "dose-dependently suppressed"}
    ]}
  ]
}
